AlphaSeq binding of Ab-95 light chain variants to a spike HR2 peptide

Reference: Engelhart et al. 2022, doi:10.1038/s41597-022-01779-4. File: FLAb, binding data.

The target is the same throughout: PDVDLGDISGINAS, from the HR2 region of SARS-CoV-2 spike.

The variants keep the heavy chain, the linker and the frameworks of Ab-95 (scFv order VH, a (GGGGS)3 linker, VL).
VH: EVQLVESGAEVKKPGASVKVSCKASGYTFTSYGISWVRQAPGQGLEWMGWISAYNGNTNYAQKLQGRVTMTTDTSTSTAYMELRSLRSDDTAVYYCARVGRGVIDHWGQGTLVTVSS
VL: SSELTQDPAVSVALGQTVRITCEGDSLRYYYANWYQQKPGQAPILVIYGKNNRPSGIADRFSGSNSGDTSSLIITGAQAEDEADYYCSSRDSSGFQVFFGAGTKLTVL

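Phage display of a naive human antibody library on the peptide gave the parent. Variants in AAYL52 differ from the parent at up to three CDR positions; double and triple changes were sampled at random. AlphaSeq pools MATa yeast showing the antibodies with MATalpha yeast showing the peptide. Binding brings cells together so that they mate, and sequencing counts the barcode pairs among the diploids. Each replicate has its own calibration line, from reference interactions of the BCL2 family. The assay was run in three technical replicates.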

Changes read parent residue, position, new residue, counted from the first residue of the VL shown. This list gathers variants with a substitution at Q96 (VL, numbered from residue 1). Affinities are written as log10 Kd with Kd in nM; a lower number is a better binder. A mean of the replicates is given; it leaves out those without a signal. An entry "nd" has no value in the source: the pair was not observed among the diploids in any replicate. This suggests poor binding but is not conclusive. In this assay the parent's reference entry averaged 2.31; its copy inside this library read 2.25.

- D25E+N52K+Q96N: 2.72 (3 of 3 replicates)
- S88V+G94E+Q96S: 2.68 (3 of 3 replicates)
- G24C+F95S+Q96M: 3.86 (2 of 3 replicates)
- N52S+S93K+Q96I: 4.55 (1 of 3 replicates)
- Y30E+Q96Y+V97T: 1.59 (3 of 3 replicates)
- G24E+S92Y+Q96L: nd (0 of 3 replicates)
- G24S+A32W+Q96S: 3.42 (2 of 3 replicates)
- L27F+D91A+Q96E: 2.67 (3 of 3 replicates)
- G49R+S55G+Q96G: 4.41 (2 of 3 replicates)
- L27F+N33T+Q96V: 2.15 (3 of 3 replicates)
- D25F+P54W+Q96N: 4.37 (2 of 3 replicates)
- Y31M+R90I+Q96C: 2.13 (3 of 3 replicates)
- S26L+F95S+Q96I: 4.21 (2 of 3 replicates)
- Y31V+F95T+Q96L: 4.16 (3 of 3 replicates)
- P54Y+Q96H: 2.79 (2 of 3 replicates)
- D25I+G49L+Q96H: 3.87 (3 of 3 replicates)
- G24Y+N52A+Q96A: 3.85 (2 of 3 replicates)
- N33A+Q96G+V97I: 5.41 (1 of 3 replicates)
- S26E+R90I+Q96Y: 4.13 (1 of 3 replicates)
- A32W+S93A+Q96K: 3.61 (2 of 3 replicates)
- S88H+D91Y+Q96A: 3.19 (3 of 3 replicates)
- S92Q+Q96Y+F98G: 1.17 (3 of 3 replicates)
- D91E+Q96R: 3.82 (3 of 3 replicates)
- Y31M+Q96A+F98T: 1.55 (3 of 3 replicates)
- D25T+Y30N+Q96N: 0.32 (3 of 3 replicates)
- Y29E+S93R+Q96G: 2.45 (3 of 3 replicates)
- S89H+F95G+Q96F: 3.40 (2 of 3 replicates)
- L27R+Q96W: 3.84 (1 of 3 replicates)
- S26G+N52V+Q96R: 2.33 (3 of 3 replicates)
- Q96Y: 2.65 (3 of 3 replicates)
- S93H+Q96S: 2.25 (3 of 3 replicates)
- D25I+A32M+Q96C: 3.71 (3 of 3 replicates)
- Q96P: 3.18 (3 of 3 replicates)
- G24I+F95I+Q96E: 4.29 (2 of 3 replicates)
- Q96V: 2.54 (3 of 3 replicates)
- G24L+Q96S+V97G: 4.85 (1 of 3 replicates)
- S55P+G94F+Q96D: 2.87 (3 of 3 replicates)

Repeated from above, the 5 best binders with a signal in all replicates:

- D25T+Y30N+Q96N = 0.32 (3 of 3 replicates)
- S92Q+Q96Y+F98G = 1.17 (3 of 3 replicates)
- Y31M+Q96A+F98T = 1.55 (3 of 3 replicates)
- Y30E+Q96Y+V97T = 1.59 (3 of 3 replicates)
- Y31M+R90I+Q96C = 2.13 (3 of 3 replicates)

Empty control strains, which show no peptide, gave a signal in 28% of pairings with library AAYL52; the median was 3.91 and 95% of these signals were weaker than 2.90. No background was subtracted.